The text below walks through data of patent US8921515B2, “Methods and compositions of preparation for proteome analysis” (Case Western Reserve University, priority 2011, dated 2014).

This data set deals with OS membrane protein pellet. Nature of the data set: Protein solubilization efficiencies of solubilizing agents (DC protein assay of supernatant). As for the experimental part: Bovine retinas obtained from WL Lawson Company (Omaha, Nebr.) were used to prepare the photoreceptor outer segment (OS) by sucrose density ultracentrifugation. All solvents used for bovine OS preparations contained protease inhibitors (1 mM EDTA, 0.2 mM PMSF, 0.7 μg/μL leupeptin, and 0.5 μg/μL pepstatin A) to inhibit protein degradation and 100 μM diethylenetriamine pentaacetic acid (DTPA) to inhibit oxidation.
The solubilized pellet solution was sonicated with a VirSonic 100 ultrasonic cell disrupter (SP Scientific, Gardiner, N.Y.) three times at 4.5 kHz of ultrasonic frequency for 9 seconds with 3-minute intervals between the sonications. The resulting protein extract was centrifuged at 15,000 g for 10 minutes, and the solubilized proteins in the supernatant were quantified using a DC protein assay kit (Bio-Rad, Hercules, Calif.).

As to ammonium bicarbonate [ABC], the Protein amount solubilized (OS membrane pellet in 100 mM ABC with agent at the concentration printed in the row (25 mM SDS 0.8% w/v, 25 mM PFOA 1% w/v, 4M urea, 4M Gdn-HCl), mean ± SD, triplicate) is recorded as 9.2 ± 2.0 μg/10μ OS membrane preparation. Further, the “protein solubilized from OS membrane protein pellet” value (text: 100 mM ABC, 1% PFOA, 1% SDS, urea, Gdn-HCl) came out at 9.2 µg.
